Drawing on ChEMBL document CHEMBL1138144, “1-(4-Methylphenyl)-2-pyrrolidin-1-yl-pentan-1-one (Pyrovalerone) analogues: a promising class of monoamine uptake inhibitors” (J Med Chem, 2006), this text covers Ki and IC50 for 3 compounds.

Chains of the proteins cited; added tags and fusions are not shown. Lines headed by an entry give the natural chain unless they say otherwise; changes in a name come on top.
UniProt Q01959, whole entry: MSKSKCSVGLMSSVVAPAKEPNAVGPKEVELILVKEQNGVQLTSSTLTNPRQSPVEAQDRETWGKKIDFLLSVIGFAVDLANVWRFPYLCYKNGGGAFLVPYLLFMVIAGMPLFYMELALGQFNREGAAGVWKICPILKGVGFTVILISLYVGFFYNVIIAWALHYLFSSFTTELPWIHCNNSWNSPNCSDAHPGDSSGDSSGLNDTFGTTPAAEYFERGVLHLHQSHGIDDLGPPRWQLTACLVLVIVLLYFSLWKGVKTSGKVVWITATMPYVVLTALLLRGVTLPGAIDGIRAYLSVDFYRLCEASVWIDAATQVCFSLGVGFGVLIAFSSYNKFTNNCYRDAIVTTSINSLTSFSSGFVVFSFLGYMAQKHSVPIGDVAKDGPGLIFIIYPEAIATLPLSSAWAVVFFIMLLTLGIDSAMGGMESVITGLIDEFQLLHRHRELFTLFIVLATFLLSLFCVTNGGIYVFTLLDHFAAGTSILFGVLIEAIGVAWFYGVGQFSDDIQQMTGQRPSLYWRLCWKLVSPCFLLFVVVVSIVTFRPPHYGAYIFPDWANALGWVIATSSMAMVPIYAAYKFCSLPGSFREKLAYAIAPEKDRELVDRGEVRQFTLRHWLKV
UniProt P08908, whole entry: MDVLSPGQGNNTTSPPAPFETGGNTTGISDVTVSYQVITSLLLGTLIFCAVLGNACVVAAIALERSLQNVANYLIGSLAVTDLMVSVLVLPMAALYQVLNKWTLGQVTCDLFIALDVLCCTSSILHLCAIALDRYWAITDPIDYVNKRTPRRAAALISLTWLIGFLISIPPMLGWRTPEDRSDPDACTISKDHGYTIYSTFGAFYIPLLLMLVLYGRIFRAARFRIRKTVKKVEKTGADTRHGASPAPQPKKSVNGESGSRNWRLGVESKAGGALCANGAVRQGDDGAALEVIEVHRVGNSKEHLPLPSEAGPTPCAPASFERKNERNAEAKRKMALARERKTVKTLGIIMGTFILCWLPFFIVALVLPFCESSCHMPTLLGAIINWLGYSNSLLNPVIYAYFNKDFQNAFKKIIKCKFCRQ
UniProt P28335: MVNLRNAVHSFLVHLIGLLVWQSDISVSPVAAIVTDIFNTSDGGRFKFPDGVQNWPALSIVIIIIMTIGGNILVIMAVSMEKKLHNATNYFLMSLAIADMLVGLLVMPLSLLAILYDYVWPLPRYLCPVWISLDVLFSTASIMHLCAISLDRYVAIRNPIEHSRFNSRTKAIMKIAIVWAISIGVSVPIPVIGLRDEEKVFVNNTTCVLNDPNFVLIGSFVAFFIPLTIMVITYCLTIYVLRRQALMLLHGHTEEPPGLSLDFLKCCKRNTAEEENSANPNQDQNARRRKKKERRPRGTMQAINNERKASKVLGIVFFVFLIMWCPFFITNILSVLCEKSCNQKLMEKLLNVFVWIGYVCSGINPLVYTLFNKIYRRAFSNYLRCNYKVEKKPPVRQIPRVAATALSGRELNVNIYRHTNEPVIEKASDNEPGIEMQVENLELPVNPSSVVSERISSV
UniProt P14416, whole entry: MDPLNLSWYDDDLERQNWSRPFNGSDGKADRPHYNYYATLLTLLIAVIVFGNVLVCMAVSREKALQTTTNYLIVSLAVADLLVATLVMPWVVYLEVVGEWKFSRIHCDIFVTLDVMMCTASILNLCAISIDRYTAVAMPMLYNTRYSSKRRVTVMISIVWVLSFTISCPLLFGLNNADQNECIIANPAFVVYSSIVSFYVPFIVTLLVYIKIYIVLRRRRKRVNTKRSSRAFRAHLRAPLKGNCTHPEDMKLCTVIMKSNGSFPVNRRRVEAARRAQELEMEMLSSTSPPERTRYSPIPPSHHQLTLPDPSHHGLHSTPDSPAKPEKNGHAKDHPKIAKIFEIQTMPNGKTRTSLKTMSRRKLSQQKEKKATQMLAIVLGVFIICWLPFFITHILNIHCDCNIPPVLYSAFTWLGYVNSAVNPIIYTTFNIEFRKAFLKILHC

Experiment [1] addresses T1, Sodium-dependent dopamine transporter (Homo sapiens, UniProt Q01959). Nature of the experiment: Displacement of [125I]RTI-55 from human DAT expressed in HEK293 cells. The class given is cell-based. The method, boiled down:
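Membranes from HEK293 cells expressing hDAT or hSERT, grown to 80% confluence, lysed in 2 mM HEPES/1 mM EDTA, spun and resuspended in 0.32 M sucrose. About 10–15 µg protein preincubated 10 min with compound in Krebs-HEPES pH 7.4 (0.1% DMSO final). [125I]RTI-55 (40–80 pM final) then added for 90 min at 25°C. Filtered on GF/C. Non-specific binding: 5 µM mazindol (DAT) or 5 µM imipramine (SERT). Duplicates, 2–3 experiments, IC50 converted to Ki by Cheng-Prusoff.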

In experiment [2] the target is T1, Sodium-dependent dopamine transporter. In words: Inhibition of [3H] dopamine uptake into human DAT expressed in HEK293 cells. The class given is functional, cell-based. An outline of the steps: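 Confluent HEK293 cells expressing hDAT or hSERT, scraped into Krebs-HEPES. Preincubated 10 min at 25°C with compound (0.1% DMSO final). Uptake started with [3H]dopamine or [3H]serotonin (20 nM final) and stopped after 10 min by filtration on PEI-soaked GF/C filters. Non-specific uptake: 5 µM mazindol (DAT) or 5 µM imipramine (SERT). IC50 from triplicate 6-concentration curves, 2–3 independent determinations.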

In experiment [3] the target is 5-hydroxytryptamine receptor 1A (Homo sapiens, UniProt P08908). Nature of the experiment: Inhibitory activity against 5HT1A.
In experiment [4] the target is 5-hydroxytryptamine receptor 2C (Homo sapiens, UniProt P28335). Nature of the experiment: Inhibitory activity against 5HT1C.
In experiment [5] the target is D(2) dopamine receptor (Homo sapiens, UniProt P14416). In words: Inhibitory activity against dopamine D2.

Molecules are shown by their SMILES.

For orientation: Ki means a measure of affinity in units of concentration, obtained from inhibition or displacement. High values mean weaker binding, low ones tighter binding. As a reminder, the IC50 is the concentration that gives 50% inhibition. The compound `CCC(C(=O)c1ccc(Cl)c(Cl)c1)N1CCCC1` (stereo unspecified) registered a Ki in experiment [1] of 0.0288 µM. In addition, in experiment [2], the IC50 was found to be 0.055 µM.
In the case of `CCCC(C(=O)c1ccc([N+](=O)[O-])cc1)N1CCCC1` (stereo unspecified), the IC50 in experiment [3], in experiment [4] and in experiment [5] was > 10 µM in each case.
In experiment [1], `CCC[C@H](C(=O)c1ccc(C)cc1)N1CCCC1` returned a Ki of 1.33 µM.
